These are literature values, as cited in patent publication US20160378912A1, “STRUCTURE-BASED MODELING AND TARGET-SELECTIVITY PREDICTION” (EPIGENETX, LLC, priority 2013, published 2016).

Protein sequences, listed by entry. Tags and fused reporters are not part of them. Lines headed by an entry give the natural chain unless they say otherwise; changes in a name come on top.
UniProt Q9UQL6: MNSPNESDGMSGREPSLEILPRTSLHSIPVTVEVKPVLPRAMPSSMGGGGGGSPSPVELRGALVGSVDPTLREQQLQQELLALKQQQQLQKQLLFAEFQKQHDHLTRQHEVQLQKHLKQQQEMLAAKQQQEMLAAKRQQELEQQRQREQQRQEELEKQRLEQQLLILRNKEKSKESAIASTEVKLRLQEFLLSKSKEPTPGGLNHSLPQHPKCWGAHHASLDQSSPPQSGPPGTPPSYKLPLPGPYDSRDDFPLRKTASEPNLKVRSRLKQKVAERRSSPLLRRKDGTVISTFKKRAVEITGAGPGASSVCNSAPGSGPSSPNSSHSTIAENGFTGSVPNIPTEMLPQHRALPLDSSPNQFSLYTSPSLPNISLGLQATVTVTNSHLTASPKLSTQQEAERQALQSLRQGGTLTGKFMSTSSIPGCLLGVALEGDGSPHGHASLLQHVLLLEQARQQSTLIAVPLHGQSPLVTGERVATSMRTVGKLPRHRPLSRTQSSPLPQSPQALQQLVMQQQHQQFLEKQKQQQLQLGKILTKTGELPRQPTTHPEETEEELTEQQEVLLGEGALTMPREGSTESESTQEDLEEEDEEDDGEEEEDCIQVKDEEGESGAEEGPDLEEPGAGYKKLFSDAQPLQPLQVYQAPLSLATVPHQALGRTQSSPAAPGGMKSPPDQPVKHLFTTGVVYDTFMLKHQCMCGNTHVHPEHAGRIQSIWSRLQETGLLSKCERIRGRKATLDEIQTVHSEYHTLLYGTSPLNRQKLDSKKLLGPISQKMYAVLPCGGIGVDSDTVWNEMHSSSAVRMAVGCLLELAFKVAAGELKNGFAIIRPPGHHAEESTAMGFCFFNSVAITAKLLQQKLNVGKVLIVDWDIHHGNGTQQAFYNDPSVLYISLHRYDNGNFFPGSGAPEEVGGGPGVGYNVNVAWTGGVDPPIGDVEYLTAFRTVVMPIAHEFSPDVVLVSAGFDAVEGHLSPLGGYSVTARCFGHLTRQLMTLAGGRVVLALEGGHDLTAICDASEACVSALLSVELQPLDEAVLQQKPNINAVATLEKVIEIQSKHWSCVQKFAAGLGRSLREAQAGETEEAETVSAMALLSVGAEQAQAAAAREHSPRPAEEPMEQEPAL
UniProt Q9UKV0: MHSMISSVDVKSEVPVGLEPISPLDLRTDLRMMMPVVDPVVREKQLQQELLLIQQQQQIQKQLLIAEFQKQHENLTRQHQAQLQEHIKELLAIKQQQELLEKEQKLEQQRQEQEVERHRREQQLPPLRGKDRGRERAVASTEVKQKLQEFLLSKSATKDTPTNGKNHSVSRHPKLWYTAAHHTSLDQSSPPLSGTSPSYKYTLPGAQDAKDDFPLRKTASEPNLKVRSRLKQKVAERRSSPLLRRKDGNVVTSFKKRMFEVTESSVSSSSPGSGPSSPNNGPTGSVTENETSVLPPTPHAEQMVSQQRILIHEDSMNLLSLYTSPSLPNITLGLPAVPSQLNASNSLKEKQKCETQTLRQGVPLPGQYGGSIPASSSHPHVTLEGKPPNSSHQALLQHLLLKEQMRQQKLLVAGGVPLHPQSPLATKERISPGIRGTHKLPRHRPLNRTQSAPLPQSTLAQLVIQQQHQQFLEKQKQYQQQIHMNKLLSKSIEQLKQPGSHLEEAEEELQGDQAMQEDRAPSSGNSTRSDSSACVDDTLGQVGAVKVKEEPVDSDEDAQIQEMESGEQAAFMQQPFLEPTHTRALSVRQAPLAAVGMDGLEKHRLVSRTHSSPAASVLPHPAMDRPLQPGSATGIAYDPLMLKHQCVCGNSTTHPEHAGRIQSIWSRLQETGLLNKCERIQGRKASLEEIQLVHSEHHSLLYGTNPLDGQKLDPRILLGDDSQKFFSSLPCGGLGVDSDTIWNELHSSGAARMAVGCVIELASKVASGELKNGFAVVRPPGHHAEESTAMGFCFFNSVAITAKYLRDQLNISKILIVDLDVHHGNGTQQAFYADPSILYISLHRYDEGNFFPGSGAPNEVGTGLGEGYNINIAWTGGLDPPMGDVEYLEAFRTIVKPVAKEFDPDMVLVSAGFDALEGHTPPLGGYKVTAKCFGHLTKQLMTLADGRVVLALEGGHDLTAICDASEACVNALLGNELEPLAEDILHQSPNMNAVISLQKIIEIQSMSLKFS

Each structure is given as a SMILES string.

In data set [1] the target is T1, HDAH (Alcaligenes sp., UniProt Q70I53).
T1 sequence (Q70I53 1-369): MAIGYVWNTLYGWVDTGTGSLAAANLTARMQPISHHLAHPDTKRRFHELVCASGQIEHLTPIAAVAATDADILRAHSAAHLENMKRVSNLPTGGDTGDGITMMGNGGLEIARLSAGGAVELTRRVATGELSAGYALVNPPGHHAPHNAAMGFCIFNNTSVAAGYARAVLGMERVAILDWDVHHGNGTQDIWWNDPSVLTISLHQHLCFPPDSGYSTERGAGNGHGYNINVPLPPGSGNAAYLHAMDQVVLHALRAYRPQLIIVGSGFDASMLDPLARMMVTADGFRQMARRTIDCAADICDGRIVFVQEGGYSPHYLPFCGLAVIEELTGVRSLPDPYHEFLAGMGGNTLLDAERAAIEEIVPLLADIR
Particulars: CTS; cited from earlier work.

The target in data set [2] is HDAC5 (Homo sapiens, UniProt Q9UQL6). Particulars: cited from earlier work.
For data set [3], the target named is HDAC9 (Homo sapiens, UniProt Q9UKV0). Particulars: cited from earlier work.
Setting [4] is: experimental value of modeled complex.
Where [5] appears, read: training set, read-out: HDACs inhibitory activities IC50.

As to `O=C(CCCCCCC(=O)Nc1ccccc1)NO` [SAHA, octanedioic acid hydroxyamidephenylamide], in data set [1], the “Experimental pIC50” value is 6.02 and the IC50 (usually the concentration that inhibits the measured activity by half) was 950 nM.

As to `CC(/C=C/C(=O)NO)=C\[C@H](C)C(=O)c1ccc(N(C)C)cc1` (stereo in doubt) [TSA, 7-(4-(Dimethylamino)phenyl)-N-hydroxy-4,6-dimethyl-7-oxo-2,4-heptadienamide], the pIC50exp in data set [2] (setting [4]) was 7.796; in data set [3] (setting [4]), 7.419. Moreover, the pIC50 (as a rule, −log10 of the IC50, conventionally taken in molar units) in data set [2] (training set composition) was 7.80; in data set [3] (training set composition), 7.42. The IC50 in data set [2] (setting [5]) was 16.5 nM; in data set [3] (setting [5]) it was 38.1 nM.
